Source: US20260297031A1, “HYDROXYLAMINE-BASED BCR-ABL1 INHIBITORS FOR TREATMENT OF CANCER” (University of Georgia Research Foundation, Inc., priority 2023, published 2026)

Protein sequences, listed by entry. Tags and fused reporters are not part of them.
UniProt P12931, whole entry: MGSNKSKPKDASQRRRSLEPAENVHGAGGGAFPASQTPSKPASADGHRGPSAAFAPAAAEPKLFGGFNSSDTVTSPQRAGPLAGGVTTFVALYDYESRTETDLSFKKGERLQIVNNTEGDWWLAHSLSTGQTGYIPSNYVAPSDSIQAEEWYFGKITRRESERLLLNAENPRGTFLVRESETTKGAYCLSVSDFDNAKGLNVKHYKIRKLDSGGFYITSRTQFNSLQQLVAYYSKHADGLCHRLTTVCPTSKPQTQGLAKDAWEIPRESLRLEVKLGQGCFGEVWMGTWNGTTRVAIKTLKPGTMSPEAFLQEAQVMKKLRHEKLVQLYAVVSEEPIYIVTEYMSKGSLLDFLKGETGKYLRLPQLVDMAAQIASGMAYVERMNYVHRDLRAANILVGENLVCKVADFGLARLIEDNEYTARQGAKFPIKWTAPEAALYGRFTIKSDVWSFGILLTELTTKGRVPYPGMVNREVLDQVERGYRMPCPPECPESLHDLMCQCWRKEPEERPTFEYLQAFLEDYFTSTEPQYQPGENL

Target: cSRC (Homo sapiens, UniProt P12931)
Experiment: KinaseProfiler radiometric kinase assay, cSRC wt
Conditions: read-out: cSRC IC50, wt

COc1cc(Nc2c(C#N)cnc3cc(OCCON4CCN(C)CC4)c(OC)cc23)c(Cl)cc1Cl [Compound 7, 4-((2,4-dichloro-5-methoxyphenyl)amino)-6-methoxy-7-(2-((4-methylpiperazin-1-yl)oxy)ethoxy)quinoline-3-carbonitrile]
IC50: 2 nM
